Patent publication US10322114B2 (Above and Beyond NB LLC, priority 2017, dated 2019)

Settings: dogs #1199 and #1205; after 3 weeks continuous IT infusion 0.1 mg/hour

In the case of Nc1nc2ccc(OC(F)(F)F)cc2s1 [Riluzole, 2-Amino-6-(trifluoromethoxy)benzothiazole], the route of elimination is reported as “largely eliminated by the kidneys in urine”.
